The test system of data set [1] is antibody disulfide bond reduction in CCF/HCCF. As to the kind of experiment: Minimum effective inhibitor concentration to prevent antibody disulfide reduction in the CHO production process. In kind it is biochemical.
Data set [2] addresses T1, thioredoxin system (Trx, TrxR, NADPH) (Rattus norvegicus, UniProt O89049).
T1 sequence (O89049 1-499): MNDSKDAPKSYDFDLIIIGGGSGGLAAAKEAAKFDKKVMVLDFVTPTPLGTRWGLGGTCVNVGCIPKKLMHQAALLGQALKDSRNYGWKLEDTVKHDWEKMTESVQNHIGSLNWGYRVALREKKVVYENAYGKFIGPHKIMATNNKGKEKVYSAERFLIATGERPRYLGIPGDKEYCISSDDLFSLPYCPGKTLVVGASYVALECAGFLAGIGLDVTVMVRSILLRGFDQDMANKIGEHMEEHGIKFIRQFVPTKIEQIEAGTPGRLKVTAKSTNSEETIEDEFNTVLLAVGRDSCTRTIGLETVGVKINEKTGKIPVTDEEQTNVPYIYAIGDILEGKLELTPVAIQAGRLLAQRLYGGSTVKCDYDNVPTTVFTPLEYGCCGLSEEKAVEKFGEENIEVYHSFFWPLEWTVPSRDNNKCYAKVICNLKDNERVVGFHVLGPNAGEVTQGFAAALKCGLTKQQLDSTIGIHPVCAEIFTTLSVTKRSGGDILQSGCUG
As to the kind of experiment: In vitro Trx/TrxR study in histidine sulfate buffer: reduction of ocrelizumab, Bioanalyzer assay.

These results are taken from US11987637B1, “Prevention of disulfide bond reduction during recombinant production of polypeptides” (Genentech, Inc., priority 2007, dated 2024).

Structures are written as SMILES.

In the case of `O=S(=O)([O-])[O-].[Cu+2]` [CuSO4, cupric sulfate], the minimum effective concentration result in data set [1] (added in CC medium, Apomab) is “about 25 μM”; in data set [1] (added in CC medium, antibody 2H7 (Variant A)) it was “about 15 μM”; in data set [1] (added in CC medium, antibody Variant C) it was “about 20 μM”; in data set [1] (added pre-lysis, Apomab), “about 75 μM”; in data set [1] (added pre-lysis, antibody 2H7 (Variant A)) it was “about 30 μM”; in data set [1] (added pre-lysis, antibody Variant C) it was “about 501 μM”. The “inhibition of ocrelizumab reduction by Trx system” value in data set [2] (inhibitor 5 μM (1:1 Cu2+:Trx) (FIG. 33)) was “insufficient to result in a complete inhibition of reduction”; in data set [2] (inhibitor 10 μM (2:1 Cu2+:Trx) (FIG. 32)), “effectively inhibits thioredoxin-induced reduction of ocrelizumab”; in data set [2] (inhibitor 20 μM (4:1 Cu2+:Trx) (FIG. 31)) it was “effectively inhibits thioredoxin-induced reduction of ocrelizumab”; in data set [2] (inhibitor 50 μM (FIG. 9)), “effectively inhibited the ocrelizumab reduction”. For the same molecule, the “minimal inhibitor concentration as multiple of Trx concentration” value in data set [2] (typical) was determined as 2 × Trx concentration.
